Measurements: patent publication US8748461B2, “Metalloenzyme inhibitor compounds” (Viamet Pharmaceuticals, Inc., priority 2011, dated 2014)

Sequences of proteins named here, by UniProt entry; tags and fusion partners are left off.
UniProt P11712, whole entry: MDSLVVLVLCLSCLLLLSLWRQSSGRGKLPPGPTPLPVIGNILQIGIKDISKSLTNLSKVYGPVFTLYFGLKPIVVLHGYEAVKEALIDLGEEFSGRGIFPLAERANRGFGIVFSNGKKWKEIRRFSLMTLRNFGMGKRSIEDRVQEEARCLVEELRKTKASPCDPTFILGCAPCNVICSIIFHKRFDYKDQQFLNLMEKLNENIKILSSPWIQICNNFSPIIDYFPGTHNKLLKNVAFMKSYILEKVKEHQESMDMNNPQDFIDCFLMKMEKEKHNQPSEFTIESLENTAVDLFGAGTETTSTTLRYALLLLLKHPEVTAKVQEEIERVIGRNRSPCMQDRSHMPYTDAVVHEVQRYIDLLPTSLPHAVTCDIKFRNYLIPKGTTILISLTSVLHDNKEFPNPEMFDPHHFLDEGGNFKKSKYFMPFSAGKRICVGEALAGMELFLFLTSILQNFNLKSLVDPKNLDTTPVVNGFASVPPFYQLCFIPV
UniProt P33261, whole entry: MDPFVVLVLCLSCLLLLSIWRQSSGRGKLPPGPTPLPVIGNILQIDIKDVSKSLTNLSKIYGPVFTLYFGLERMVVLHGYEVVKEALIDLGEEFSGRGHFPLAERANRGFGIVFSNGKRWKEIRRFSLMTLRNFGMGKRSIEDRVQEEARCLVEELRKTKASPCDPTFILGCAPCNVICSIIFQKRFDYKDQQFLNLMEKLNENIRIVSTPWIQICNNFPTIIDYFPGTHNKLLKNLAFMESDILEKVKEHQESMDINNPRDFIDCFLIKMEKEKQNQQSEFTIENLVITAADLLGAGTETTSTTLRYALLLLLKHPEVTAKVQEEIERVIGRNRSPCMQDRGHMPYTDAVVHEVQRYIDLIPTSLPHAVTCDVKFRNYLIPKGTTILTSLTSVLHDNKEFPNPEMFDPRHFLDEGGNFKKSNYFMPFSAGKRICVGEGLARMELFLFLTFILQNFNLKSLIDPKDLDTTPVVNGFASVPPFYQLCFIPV

Assays:
[1] = target: T1, CYP2C9 (Homo sapiens, UniProt P11712); assay: Inhibition of liver cytochrome P450 enzymes, isozyme 2C9; assay type: in vitro ADME
T1 construct: from tissue; host or cells: pooled human liver microsomes
Procedure: (§1) B. […] Solutions of each test compound were separately prepared at concentrations of 20000, 6000, 2000, 600, 200, and 60 μM by serial dilution with DMSO:acetonitrile (MeCN) (50:50 v/v). The individual test compound solutions were then diluted 20-fold with DMSO:MeCN:deionized water (5:5:180 v/v/v) to concentrations of 1000, 300, 100, 30, 10, and 3 μM. […] The mixed inhibitor solutions were then diluted 20-fold with DMSO:MeCN:deionized water (5:5:180 v/v/v) to concentrations of 300, 100, 30, 10, 3, 1, 0.3, and 0.1 μM. The percent of organic solvent attributable to the test compound or inhibitor mixture in the final reaction mixture was 2% v/v. Pooled human liver microsome suspension (20 mg/mL) was diluted with phosphate buffer to obtain a 5 mg/mL suspension. A solution of NADPH was prepared in phosphate buffer at a concentration of 5 mM. Separate stock solutions of each substrate were prepared in DMSO:MeCN (50:50 v/v), mixed, and diluted in phosphate buffer to obtain a single solution containing each substrate at five times its experimentally determined Km concentration. […] A portion of the supernatant was analyzed by gradient reverse-phase HPLC with detection by electrospray ionization triple quadrupole mass spectrometry in the positive ion mode. Data was fitted to sigmoid dose-response curves and the inhibitory potency of each test compound was determined as its IC50 value.

[2] = target: T2, CYP2C19 (Homo sapiens, UniProt P33261); assay: Inhibition of liver cytochrome P450 enzymes, isozyme 2C19; assay type: in vitro ADME
T2 construct: from tissue; host or cells: pooled human liver microsomes
Procedure: as §1

Structure (SMILES): OC(Cn1cncn1)(Cn1cncn1)c1ccc(F)cc1F [Fluconazole, reference compound]
- IC50 [1]: 29 µM
- IC50 [2]: 8.2 µM
